Measured values: article PMC5905335 (Cancer discovery, 2017)

Assays:
[1] = Plasma pharmacokinetics after single and multiple daily dosing; details: human, in vivo
PARP = assay: PBMC PARP activity; type: in vivo, human; details: multiple dosing 1.0 mg/day, n = 4

Cn1ncnc1[C@H]1c2n[nH]c(=O)c3cc(F)cc(c23)N[C@@H]1c1ccc(F)cc1 [talazoparib]
CL/F, mean (SD) ([1]; 0.025 mg): 5.17 (2.10) L/h | CL/F, mean (SD) ([1]; 0.05 mg): 6.27 (1.66) L/h | CL/F, mean (SD) ([1]; 0.1 mg): 2.72 (0.532) L/h | CL/F, mean (SD) ([1]; 0.2 mg): 2.61 (1.35) L/h | CL/F, mean (SD) ([1]; 0.4 mg): 6.95 (1.71) L/h | CL/F, mean (SD) ([1]; 0.6 mg): 5.19 (0.99) L/h | CL/F, mean (SD) ([1]; 0.9 mg): 5.49 (2.08) L/h | CL/F, mean (SD) ([1]; 1 mg): 5.39 (1.59) L/h | CL/F, mean (SD) ([1]; 1.1 mg): 5.32 (1.64) L/h | PARP activity, mean (SD) (PARP): 21.1 (14.9) % baseline
